Measured values from US20060019972A1, “Methods of treating cancer by inhibiting histone gene expression” (California Institute of Technology, priority 2004, published 2006).

System: human histone H4c gene (radiolabeled PCR product)
Conditions: polyamide concentrations up to 100 nM

CN(C)CCCNC(=O)CCNC(=O)c1cc(NC(=O)c2cc(NC(=O)c3cc(NC(=O)c4cc(NC(=O)C(N)CCNC(=O)c5nc(NC(=O)CCNC(=O)c6nc(NC(=O)c7nccn7C)cn6C)cn5C)cn4C)cn3C)cn2C)cn1C (stereo not shown) [1S]
binding to the H4c DNA fragment: failed to bind
